# Apparent affinities of Ab-91 variants for a coronavirus HR2 peptide

Target peptide (SARS-CoV-2 spike, HR2 region): PDVDLGDISGINAS

The variants keep the light chain, the linker and the frameworks of Ab-91 (scFv order VL, a (GGGGS)3 linker, VH).
VL: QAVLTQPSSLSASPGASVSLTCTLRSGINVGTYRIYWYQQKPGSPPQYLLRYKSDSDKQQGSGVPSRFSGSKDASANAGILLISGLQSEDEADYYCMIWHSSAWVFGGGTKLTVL
VH: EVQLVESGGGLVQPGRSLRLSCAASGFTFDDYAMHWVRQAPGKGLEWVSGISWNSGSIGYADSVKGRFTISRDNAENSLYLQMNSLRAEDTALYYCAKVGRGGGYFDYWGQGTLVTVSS

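Phage display of a naive human antibody library on the peptide gave the parent. The library (AAYL51) carries one to three amino acid substitutions per variant, with no insertions or deletions. The scFvs were displayed on barcoded MATa yeast, the peptide on MATalpha yeast. The frequency of each diploid, read from paired DNA barcodes, reflects how well the two displayed proteins bind. Read counts were normalised to the haploid input and turned into Kd by a linear fit to BCL2-family pairs of known affinity, for each replicate. Mating was done three times.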

Changes read parent residue, position, new residue, counted from the first residue of the VH shown. Numbers give log10(Kd / nM), so 0 is 1 nM and 3 is 1 µM. Smaller is tighter. The mean shown is taken over the replicates in which the pair was detected. "n.d." means that the variant was in the library but no mating with the target was seen in that replicate; the authors take this as a sign of poor binding, and no number exists. Parent in this assay: reference entry 1.86, copy in this library 0.88. Empty control strains, which show no peptide, gave a signal in 21% of pairings with library AAYL51; the median was 4.54 and 95% of these signals were weaker than 3.26. No background was subtracted. Also given: how often the same scFv was detected with the empty control strains, with their mean in brackets.

| changes | log10 Kd, replicates | mean log10 Kd (nM) | signal with controls |
|---|---|---|---|
| S55F Y60K G100D | n.d. / n.d. / 5.04 | 5.04 | 6 of 9 (5.13) |
| A33P G59L A61Q | n.d. / 3.23 / n.d. | 3.23 | 0 of 9 |
| F27H H35R G56N | 4.59 / 6.07 / n.d. | 5.33 | 4 of 9 (4.96) |
| T28Y Y32G H35P | n.d. / n.d. / n.d. | n.d. | 2 of 9 (4.42) |
| M34W I58G R101V | 2.57 / 2.31 / 2.23 | 2.37 | 7 of 9 (4.93) |
| Y32A G59H G104D | n.d. / n.d. / n.d. | n.d. | 0 of 9 |
| A33S I51Y S55E | 4.43 / 6.62 / 4.74 | 5.26 | 5 of 9 (3.88) |
| D30N G56A V64T | 1.47 / 1.60 / 0.93 | 1.33 | 3 of 9 (4.34) |
| F27Q D30V G104S | n.d. / n.d. / n.d. | n.d. | 3 of 9 (5.24) |
| Y60L V64N K65A | n.d. / n.d. / n.d. | n.d. | 0 of 9 |
| Y32Q A33E Y105W | 3.01 / 3.50 / 3.95 | 3.49 | 1 of 9 (3.71) |
| H35P I51S W53M | n.d. / n.d. / n.d. | n.d. | 2 of 9 (5.51) |
| Y32P G100C | 3.60 / 6.18 / 3.57 | 4.45 | 3 of 9 (5.24) |
| D30L N54F G56P | 5.25 / 5.02 / n.d. | 5.13 | 4 of 9 (4.52) |
| G56K A61C D107G | n.d. / n.d. / n.d. | n.d. | 2 of 9 (5.05) |
| H35K S52Y V99S | 5.02 / 4.24 / 5.01 | 4.76 | 4 of 9 (4.64) |
| A33P W53N Y108W | 2.45 / n.d. / n.d. | 2.45 | 0 of 9 |
| G59F G104S F106K | n.d. / n.d. / n.d. | n.d. | 2 of 9 (3.57) |
| N54M I58G Y60S | n.d. / n.d. / n.d. | n.d. | 0 of 9 |
| D30N S52R G56L | n.d. / n.d. / n.d. | n.d. | 0 of 9 |
| I51T S57C A61I | n.d. / n.d. / n.d. | n.d. | 1 of 9 (3.18) |
| T28S S52D K65V | n.d. / n.d. / n.d. | n.d. | 0 of 9 |
| A61R D62F F106I | n.d. / n.d. / n.d. | n.d. | 2 of 9 (4.12) |
| A61M R101Q Y108I | 3.39 / 4.50 / 4.37 | 4.09 | 3 of 9 (4.52) |
| M34K N54R K65N | n.d. / n.d. / n.d. | n.d. | 3 of 9 (3.54) |
| Y32K V99S F106T | n.d. / n.d. / 2.83 | 2.83 | 0 of 9 |
| M34A I51G V99S | n.d. / n.d. / n.d. | n.d. | 2 of 9 (4.09) |
| F27A W53G D107F | n.d. / n.d. / n.d. | n.d. | 1 of 9 (3.58) |
| F106Y | 2.10 / 2.35 / 2.37 | 2.27 | 0 of 9 |
| D30I H35E G50W | n.d. / n.d. / n.d. | n.d. | 0 of 9 |
| W53M R101L G102Q | 0.95 / 0.90 / 0.39 | 0.75 | 1 of 9 (4.75) |
| A33V I58P R101C | n.d. / n.d. / n.d. | n.d. | 0 of 9 |
| S55V Y105E F106P | 5.66 / n.d. / n.d. | 5.66 | 3 of 9 (4.79) |
| A33M A61P G103T | n.d. / n.d. / n.d. | n.d. | 0 of 9 |
| F29H G50S Y108V | n.d. / n.d. / n.d. | n.d. | 0 of 9 |
| Y32A M34Y G102I | 4.32 / n.d. / n.d. | 4.32 | 2 of 9 (4.66) |
| H35E I58E Y105V | n.d. / n.d. / n.d. | n.d. | 0 of 9 |
| T28Q G50R G56K | n.d. / n.d. / n.d. | n.d. | 0 of 9 |
| D62E V99R | 1.97 / 1.79 / 1.64 | 1.80 | 2 of 9 (5.32) |
| G50M S55Q I58K | 5.82 / 4.90 / 5.72 | 5.48 | 7 of 9 (4.84) |
| G56K G100D G103H | 3.93 / 3.52 / n.d. | 3.72 | 3 of 9 (4.36) |
| G56D I58Y G102D | n.d. / n.d. / n.d. | n.d. | 0 of 9 |
| F27G H35E S57D | 3.23 / n.d. / n.d. | 3.23 | 1 of 9 (3.44) |
| Y32A R101K Y108D | 3.43 / 4.14 / n.d. | 3.78 | 0 of 9 |
| G50K S55K V64R | n.d. / n.d. / n.d. | n.d. | 1 of 9 (1.88) |
| F29D A33H V99C | n.d. / n.d. / n.d. | n.d. | 0 of 9 |
| H35K G50K G103F | n.d. / n.d. / n.d. | n.d. | 2 of 9 (4.00) |
| G59W D62L D107G | 3.98 / n.d. / n.d. | 3.98 | 0 of 9 |
| F29V Y32G F106L | n.d. / n.d. / n.d. | n.d. | 2 of 9 (4.46) |
| N54R G56F G104E | n.d. / n.d. / 4.51 | 4.51 | 3 of 9 (4.21) |

The opening 6 entries, copied out:

| changes | log10 Kd, replicates | mean log10 Kd (nM) | signal with controls |
|---|---|---|---|
| S55F Y60K G100D | n.d. / n.d. / 5.04 | 5.04 | 6 of 9 (5.13) |
| A33P G59L A61Q | n.d. / 3.23 / n.d. | 3.23 | 0 of 9 |
| F27H H35R G56N | 4.59 / 6.07 / n.d. | 5.33 | 4 of 9 (4.96) |
| T28Y Y32G H35P | n.d. / n.d. / n.d. | n.d. | 2 of 9 (4.42) |
| M34W I58G R101V | 2.57 / 2.31 / 2.23 | 2.37 | 7 of 9 (4.93) |
| Y32A G59H G104D | n.d. / n.d. / n.d. | n.d. | 0 of 9 |

The measurements come from Engelhart et al. 2022 (doi:10.1038/s41597-022-01779-4) through the FLAb antibody collection.